Values quoted from earlier work in paper PMC12530842, “Potent, Selective, and Drug‐Like G Protein‐Coupled Receptor Kinase 5 and 6 Inhibitors: Design, Synthesis, and X‐Ray Structural Studies” (Chemmedchem, 2025).

Protein sequences, listed by entry. Tags and fused reporters are not part of them.
UniProt P43250, whole entry T10A/C561S/C562S/C565S: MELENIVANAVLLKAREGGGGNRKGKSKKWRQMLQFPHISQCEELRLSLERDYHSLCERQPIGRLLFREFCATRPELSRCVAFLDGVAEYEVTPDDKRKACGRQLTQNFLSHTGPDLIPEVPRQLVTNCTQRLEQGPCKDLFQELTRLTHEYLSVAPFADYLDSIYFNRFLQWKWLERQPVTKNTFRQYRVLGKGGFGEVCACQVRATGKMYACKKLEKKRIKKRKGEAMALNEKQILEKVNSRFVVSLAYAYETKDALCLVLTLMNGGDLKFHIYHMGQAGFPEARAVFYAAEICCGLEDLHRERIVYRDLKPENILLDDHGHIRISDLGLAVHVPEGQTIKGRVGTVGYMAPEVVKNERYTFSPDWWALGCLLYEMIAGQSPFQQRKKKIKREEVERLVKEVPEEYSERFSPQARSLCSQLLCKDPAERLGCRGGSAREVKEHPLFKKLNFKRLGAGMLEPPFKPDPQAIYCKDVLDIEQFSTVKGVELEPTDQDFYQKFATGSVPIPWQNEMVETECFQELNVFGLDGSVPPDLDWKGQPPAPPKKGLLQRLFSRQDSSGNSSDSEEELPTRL

Biological target: T1, GRK6 (Homo sapiens, UniProt P43250, C561S/C562S/C565S/T10A)
T1 construct: His tag (inferred: purified by the GRK5 protocol, which starts with nickel-NTA); made in house; host or cells: Sf9 insect cells
Settings: Figures 1 and 2; earlier work; cited from earlier work

Compound: Cc1[nH]c(/C=C2\C(=O)Nc3ccc(C(=O)N[C@H](C)c4ccc(F)cc4)cc32)c(C)c1NC(=O)[C@H]1CCC(=O)O1 [compound 5]
- IC50: 30 ± 10 nM
